# Experimental data published in patent publication US7193127B1, “Codeinone reductase from alkaloid poppy” (priority 1999, dated 2007).
# Tested on: codeinone reductase isoforms
# Format: biochemical, Papaver somniferum
# Conditions: NADPH as cofactor; physiologically forward reaction
# Protocol: The two other potential substrates for reduction, the 1,2-dehydroreticulinium ion and salutaridine (FIG. 1), or for the physiologically reverse reaction, salutaridinol and (R)-reticuline, were tested as substrates; with the codeinone reductase isoforms.
# In order to test for a functional evolutionary relationship between isoflavonoid and alkaloid anabolism, codeinone reductase was analyzed for the ability to substitute for the reductase in the formation of 6-deoxychalcone in co-action with either native chalcone synthase or native stilbene synthase from Pinus sylvestris.
compound,measurement,value
CN1CC[C@]23c4c5ccc(O)c4O[C@H]2C(=O)CC[C@H]3[C@H]1C5 [hydromorphone],serves as substrate in the reductive reaction,functions
